This is a selection; strong and weak results do not stand in their true shares.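 Results are percent growth after 48 hours of single-concentration exposure. 100 means growth as in untreated cells, lower positive values show inhibition; negative values down to -100 show cell death.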 The source made the active and inactive calls. How the source made its calls: active means growth percent below 10; inactive means the rest.
Experiments:
Assay in all cases: NCI-60 one-dose screen, 48 h (100 = growth as untreated, 0 = no growth, -100 = all killed)
DU-145 prostate = conditions: 10 µM unless noted
K-562 leukemia = conditions: 10 µM unless noted
MALME-3M melanoma = conditions: 10 µM unless noted
MDA-MB-231 breast = conditions: 10 µM unless noted
SF-268 CNS = conditions: 10 µM unless noted
SF-295 CNS = conditions: 10 µM unless noted
SF-539 CNS = conditions: 10 µM unless noted
UACC-257 melanoma = conditions: 10 µM unless noted
M14 melanoma = conditions: 10 µM unless noted
HCT-15 colon = conditions: 10 µM unless noted
HT29 colon = conditions: 10 µM unless noted
SNB-75 CNS = conditions: 10 µM unless noted
SNB-19 CNS = conditions: 10 µM unless noted
U251 CNS = conditions: 10 µM unless noted
PC-3 prostate = conditions: 10 µM unless noted
SK-MEL-5 melanoma = conditions: 10 µM unless noted
UACC-62 melanoma = conditions: 10 µM unless noted
LOX IMVI melanoma = conditions: 10 µM
SK-MEL-28 melanoma = conditions: 10 µM unless noted
RXF 393 renal = conditions: 10 µM unless noted

Measured: growth

NC(=O)c1[nH]cnc1/N=N\N(CCCl)CCCl
inactive: DU-145 prostate 126% | K-562 leukemia 112% | MALME-3M melanoma 140% | MDA-MB-231 breast 108% | SF-268 CNS 117% | SF-295 CNS 133% | SF-539 CNS 99.9% | UACC-257 melanoma 103% | M14 melanoma 103% | HCT-15 colon 145% | HT29 colon 108% | SNB-75 CNS 78.9% | SNB-19 CNS 106% | U251 CNS 119% | PC-3 prostate 106% | SK-MEL-5 melanoma 114% | UACC-62 melanoma 101% | LOX IMVI melanoma 111% | SK-MEL-28 melanoma 125%

CCOC(=O)Nc1cccc([As](=O)(O)O)c1
inactive: DU-145 prostate 101% | K-562 leukemia 96.5% | MALME-3M melanoma 90% | MDA-MB-231 breast 112% | SF-268 CNS 96.3% | SF-295 CNS 110% | SF-539 CNS 90% | UACC-257 melanoma 105% | M14 melanoma 99.4% | HCT-15 colon 90.3% | HT29 colon 93.3% | SNB-75 CNS 74.9% | U251 CNS 95% | SK-MEL-5 melanoma 101% | UACC-62 melanoma 91% | LOX IMVI melanoma 91% | SK-MEL-28 melanoma 115%

O=[As](O)(c1ccc(Cl)cc1)C1CCCCC1O (stereo not drawn)
inactive: DU-145 prostate 107% | K-562 leukemia 80% | MDA-MB-231 breast 93.6% | RXF 393 renal 87.1% | SF-268 CNS 90.7% | SF-539 CNS 94.7% | UACC-257 melanoma 101% | M14 melanoma 104% | HCT-15 colon 88.3% | HT29 colon 92.2% | SNB-75 CNS 85.6% | SNB-19 CNS 102% | U251 CNS 91.3% | PC-3 prostate 72.7% | SK-MEL-5 melanoma 90.9% | UACC-62 melanoma 92.5% | LOX IMVI melanoma 96.6% | SK-MEL-28 melanoma 103%

CCOP(=S)(OCC)SCCCl
inactive: DU-145 prostate 105% | K-562 leukemia 102% | MALME-3M melanoma 112% | MDA-MB-231 breast 100% | SF-268 CNS 105% | SF-295 CNS 87.1% | SF-539 CNS 99.9% | UACC-257 melanoma 88.6% | M14 melanoma 102% | HCT-15 colon 95.1% | HT29 colon 115% | SNB-75 CNS 82.6% | SNB-19 CNS 98.8% | PC-3 prostate 102% | SK-MEL-5 melanoma 103% | UACC-62 melanoma 101% | LOX IMVI melanoma 101% | SK-MEL-28 melanoma 108%

NCCc1ccc(N(CCCl)CCCl)cc1
inactive: DU-145 prostate 48.3% | K-562 leukemia 59% | MALME-3M melanoma 91.6% | MDA-MB-231 breast 103% | SF-268 CNS 49% | SF-539 CNS 35% | UACC-257 melanoma 65.1% | M14 melanoma 60.8% | HCT-15 colon 78.2% | HT29 colon 66.5% | SNB-75 CNS 64.3% | SNB-19 CNS 77.8% | PC-3 prostate 79.1% | SK-MEL-5 melanoma 85.8% | UACC-62 melanoma 64.1% | LOX IMVI melanoma 43.8% | SK-MEL-28 melanoma 86.4%

O=C(C(=O)c1ccc([N+](=O)[O-])cc1[N+](=O)[O-])c1ccc([N+](=O)[O-])cc1[N+](=O)[O-]
inactive: DU-145 prostate 113% | K-562 leukemia 71.7% | MALME-3M melanoma 101% | RXF 393 renal 133% | SF-268 CNS 96% | SF-295 CNS 109% | SF-539 CNS 101% | UACC-257 melanoma 96.5% | M14 melanoma 90.1% | HCT-15 colon 98.2% | HT29 colon 111% | SNB-75 CNS 88.8% | SNB-19 CNS 101% | U251 CNS 94.5% | PC-3 prostate 90.1% | SK-MEL-5 melanoma 89.4% | UACC-62 melanoma 99.9% | LOX IMVI melanoma 81.7% | SK-MEL-28 melanoma 113%

CCCCOP(OCCCC)OCCCC
inactive: DU-145 prostate 119% | K-562 leukemia 107% | MDA-MB-231 breast 119% | RXF 393 renal 105% | SF-268 CNS 116% | SF-539 CNS 102% | UACC-257 melanoma 109% | M14 melanoma 99.8% | HCT-15 colon 90.5% | HT29 colon 93.6% | SNB-75 CNS 99.6% | SNB-19 CNS 110% | U251 CNS 104% | PC-3 prostate 115% | SK-MEL-5 melanoma 102% | UACC-62 melanoma 114% | LOX IMVI melanoma 100% | SK-MEL-28 melanoma 112%

O=P1(N(CCCl)CCCl)OCCC2CCCCN21 (stereo not drawn)
inactive: DU-145 prostate 115% | K-562 leukemia 98% | MDA-MB-231 breast 107% | RXF 393 renal 114% | SF-268 CNS 103% | SF-295 CNS 110% | SF-539 CNS 103% | UACC-257 melanoma 103% | M14 melanoma 97.7% | HCT-15 colon 105% | HT29 colon 108% | SNB-75 CNS 97.5% | SNB-19 CNS 99.7% | U251 CNS 103% | PC-3 prostate 98% | SK-MEL-5 melanoma 113% | UACC-62 melanoma 96.4% | SK-MEL-28 melanoma 116%

O=P1(N(CCCl)CCCl)OCCCN1CCCl (stereo not drawn)
inactive: DU-145 prostate 102% | K-562 leukemia 106% | MDA-MB-231 breast 107% | RXF 393 renal 104% | SF-268 CNS 106% | SF-295 CNS 102% | SF-539 CNS 100% | UACC-257 melanoma 104% | M14 melanoma 104% | HCT-15 colon 100% | HT29 colon 117% | SNB-75 CNS 99.4% | SNB-19 CNS 106% | U251 CNS 97.6% | PC-3 prostate 93.7% | SK-MEL-5 melanoma 99.4% | UACC-62 melanoma 111% | LOX IMVI melanoma 107% | SK-MEL-28 melanoma 120%
